According to patent US8592454B2, “Nitrogen-containing heterocyclic compound and use of same” (Takeda Pharmaceutical Company Limited, priority 2008, dated 2013):
pIC50: −log10 of the molar value.

Sequences of proteins named here, by UniProt entry; tags and fusion partners are left off.
UniProt P29371, whole entry: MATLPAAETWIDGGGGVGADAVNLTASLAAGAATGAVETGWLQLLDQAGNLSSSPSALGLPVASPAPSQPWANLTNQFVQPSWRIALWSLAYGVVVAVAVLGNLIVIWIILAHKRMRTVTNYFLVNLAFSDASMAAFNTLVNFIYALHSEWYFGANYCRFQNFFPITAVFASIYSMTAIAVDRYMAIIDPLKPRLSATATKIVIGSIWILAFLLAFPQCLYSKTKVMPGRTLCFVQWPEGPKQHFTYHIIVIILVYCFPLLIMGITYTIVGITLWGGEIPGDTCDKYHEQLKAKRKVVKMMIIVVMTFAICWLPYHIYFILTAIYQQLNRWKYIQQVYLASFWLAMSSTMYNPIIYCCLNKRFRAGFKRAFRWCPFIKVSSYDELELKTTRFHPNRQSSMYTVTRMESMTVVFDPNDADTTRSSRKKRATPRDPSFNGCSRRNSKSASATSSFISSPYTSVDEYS

Molecular target: Human NK3 (hNK3) receptor (Homo sapiens (Human), UniProt P29371)

CC(=O)N1CCC(C(=O)N2C[C@@H](N(C)C(=O)N(C)c3cc(C(F)(F)F)cc(C(F)(F)F)c3)[C@H](c3ccc(Cl)c(Cl)c3)C2)CC1 (racemic) [Example 66, 1-[(3S*, 4R*)-1-[(1-acetylpiperidin-4-yl)carbonyl]-4-(3,4-dichlorophenyl)pyrrolidin-3-yl]-3-[3,5-bis(trifluoromethyl)phenyl]-1,3-dimethylurea]
pIC50: 6.85
